From patent US6444684B1 (priority 1993, dated 2002)

Test system: human tumor cells in hollow fibers
Assay: NCI Hollow Fiber Assay for preliminary in vivo testing
Conditions: 2 points per dose with 50% or greater reduction in viable cell mass

SMILES: COC(=O)c1nc(-c2ccc3c(n2)C(=O)C(N)=C(Cl)C3=O)c2[nH]c3ccccc3c2c1C [Compound 58, 6-Chlorolavendamycin methyl ester]
- IP Score (intraperitoneal fibers): 10
- SC Score (subcutaneous fibers): 4
